Laboratory results from PMC3905752 (Nature chemical biology, 2013).

Columns and labels:
Cdc34A = Cdc34A (Homo sapiens, UniProt P0CG48+P49427); experiment: Quantitative SCF ubiquitination assay with β-Catenin substrate peptide; type: biochemical
SCF^Cdc4-Cdc34A = SCF^Cdc4-Cdc34A (Homo sapiens, UniProt P49427); experiment: biochemical; details: Ubiquitination assay IC50
Cdc34A^CAT = biological target: T1, Cdc34A^CAT (Homo sapiens, UniProt P49427); experiment: NMR HSQC chemical shift perturbation titration of CC0651 into 15N-Cdc34A^CAT; type: binding
T1 sequence (P49427 7-184): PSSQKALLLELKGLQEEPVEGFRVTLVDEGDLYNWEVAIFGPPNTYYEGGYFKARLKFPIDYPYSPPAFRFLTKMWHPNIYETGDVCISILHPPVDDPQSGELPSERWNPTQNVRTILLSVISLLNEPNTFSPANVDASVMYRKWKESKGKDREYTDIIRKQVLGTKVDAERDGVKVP

Compound: COCC(=O)N[C@@H](Cc1ccc(-c2cc(Cl)cc(Cl)c2)cc1)[C@H](O)[C@@H](O)C(=O)O [CC0651, (2R,3S,4S)-5-(3′,5′-Dichloro-[1,1′-biphenyl]-4-yl)-2,3-dihydroxy-4-(2 methoxyacetamido)pentanoic acid]
- IC50 (Cdc34A): 18 ± 1 µM
- IC50 (SCF^Cdc4-Cdc34A): 2.5 ± 1 µM
- EC50 (Cdc34A^CAT): 267 µM
